The EC50 is the concentration giving half of the maximal effect.

Protein sequences, listed by entry. Tags and fused reporters are not part of them.
UniProt Q9HBX9, whole entry: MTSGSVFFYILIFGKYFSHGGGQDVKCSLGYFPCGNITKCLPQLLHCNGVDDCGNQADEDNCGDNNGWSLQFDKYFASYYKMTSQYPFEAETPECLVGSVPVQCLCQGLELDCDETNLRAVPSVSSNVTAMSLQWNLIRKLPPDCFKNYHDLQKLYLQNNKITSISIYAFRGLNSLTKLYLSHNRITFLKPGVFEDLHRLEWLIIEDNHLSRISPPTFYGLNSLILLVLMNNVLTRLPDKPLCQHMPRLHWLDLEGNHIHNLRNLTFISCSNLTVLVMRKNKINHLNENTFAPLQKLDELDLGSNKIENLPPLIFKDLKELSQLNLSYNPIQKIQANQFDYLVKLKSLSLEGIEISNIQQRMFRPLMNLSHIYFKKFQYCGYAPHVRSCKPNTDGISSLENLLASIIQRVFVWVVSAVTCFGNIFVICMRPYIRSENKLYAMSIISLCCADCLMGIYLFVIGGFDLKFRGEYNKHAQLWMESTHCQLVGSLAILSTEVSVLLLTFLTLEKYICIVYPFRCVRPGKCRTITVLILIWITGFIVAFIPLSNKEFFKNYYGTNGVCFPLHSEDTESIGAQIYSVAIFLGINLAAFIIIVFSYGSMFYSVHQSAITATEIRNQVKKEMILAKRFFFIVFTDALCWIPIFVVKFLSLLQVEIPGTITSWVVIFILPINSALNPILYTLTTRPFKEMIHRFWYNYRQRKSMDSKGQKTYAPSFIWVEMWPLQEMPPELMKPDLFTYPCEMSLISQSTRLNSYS

The assay has as its target human RXFP1 (Homo sapiens, UniProt Q9HBX9). Nature of the assay: human RXFP1 (hRXFP1) HEK293 cAMP assay (HTRF). The assay is classed as cell-based. Particulars: read-out: cAMP hRXFP1 HEK293 Assay EC50, HEK293 cells stably expressing human RXFP1, 30 min at room temperature. On the technique in general: Cyclic AMP is a second messenger, typically raised through Gs and lowered through Gi signalling.

Turning to `COc1ncc(COCC2(O)CC2)cc1C(=O)N[C@H]1[C@@H](C(=O)NCC(C)(C)C)[C@H]2CC[C@@H]1/C2=C\C1CC1`, the EC50 worked out at 870 nM.

For the origin of these results see US20250011288A1 (BRISTOL-MYERS SQUIBB COMPANY, priority 2021, published 2025).
